## Binding of CDR-mutated scFvs to a peptide of the spike HR2 region

The measurements come from Engelhart et al. 2022 (doi:10.1038/s41597-022-01779-4) through the FLAb antibody collection.

Target peptide (SARS-CoV-2 spike, HR2 region): PDVDLGDISGINAS

Each scFv is VH, three GGGGS repeats, VL, as in the parent Ab-95, and differs from it in the CDRs of the light chain only.
VH: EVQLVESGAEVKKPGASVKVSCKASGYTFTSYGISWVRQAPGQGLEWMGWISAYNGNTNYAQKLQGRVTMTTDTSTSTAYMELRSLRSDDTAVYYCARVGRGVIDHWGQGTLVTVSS
VL: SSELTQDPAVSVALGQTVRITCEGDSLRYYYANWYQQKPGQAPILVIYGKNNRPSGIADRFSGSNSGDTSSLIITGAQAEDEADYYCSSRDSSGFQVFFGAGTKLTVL

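The parent was found by panning a naive human phage display library on the peptide. In library AAYL52, one, two or three CDR residues were substituted; doubles and triples were drawn at random. AlphaSeq pools MATa yeast showing the antibodies with MATalpha yeast showing the peptide. Binding brings cells together so that they mate, and sequencing counts the barcode pairs among the diploids. Scores were corrected for input abundance and mapped to Kd with protein pairs of known affinity run in the same pool. Each pool was mated in three replicate cultures.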

The parent's light chain CDRs are EGDSLRYYYAN, GKNNRPS, SSRDSSGFQVF; each variant's own CDRs replace them letter for letter. All variants listed here change G24 of the VL, counted from its first residue. Kd is apparent (estimated from mating counts) and averaged on the log scale over replicates with a signal. Smaller is tighter. "nd" marks a missing value. The strain was present, yet no cells mated with the target were sequenced in any replicate, which points to weak or no binding. For reference, the parent read 200 nM as the reference entry and 180 nM as a member of this library.

* EMDSLRYYYAN | GKNNRES | SSRDSSGFSVF = 28 µM (3 of 3 replicates; controls 4 of 9)
* EQDSLRYYYAP | GKNNRPS | YSRDSSGFQVF = nd (0 of 3 replicates; controls 4 of 9)
* ENDQLRYYYAN | GKNNRPS | SSRDKSGFQVF = 3.3 µM (2 of 3 replicates; controls 2 of 9)
* ECDSLRYYYAN | GKNNRPS | SSRPSSGFQAF = 640 nM (3 of 3 replicates; controls 2 of 9)
* EEDSERYYYAN | GKNNRPS | SSRNSSGFQVF = 31 µM (2 of 3 replicates; controls 4 of 9)
* EYDSLRYYYAN | GKNNRPC | SSRDSSGFQVF = 5.9 µM (3 of 3 replicates; controls 3 of 9)
* ELDSLRYYYAN | GKNNLPS | SSRDSSGFQVF = 590 nM (3 of 3 replicates; controls 2 of 9)
* ERDSLRYYYAN | GKNNIPY | SSRDSSGFQVF = 22 µM (1 of 3 replicates; controls 4 of 9)
* AMDSLRYYYAN | GKNNRPS | SSRDSSGLQVF = 2.1 µM (3 of 3 replicates; controls 1 of 9)
* EIDSLRYYYAN | GKNNRPW | SSRDSGGFQVF = 15 µM (1 of 3 replicates; controls 4 of 9)
* EMDSLRYYVAN | SKNNRPS | SSRDSSGFQVF = 4.3 µM (2 of 3 replicates; controls 1 of 9)
* ECASLRYYYAN | WKNNRPS | SSRDSSGFQVF = 1.6 µM (1 of 3 replicates; controls 2 of 9)
* ESDSYRYYYAN | GKNNRPS | SSRDSSGFVVF = 500 nM (3 of 3 replicates; controls 4 of 9)
* ECDSLRYYYAN | GKNNRAS | ASRDSSGFQVF = 720 nM (3 of 3 replicates; controls 3 of 9)
* EDDSLRYYYAN | GPNNRPS | SSRDSSGDQVF = 13 µM (2 of 3 replicates; controls 7 of 9)
* ESDSLRYYYFN | GKNNRPF | SSRDSSGFQVF = 1.4 µM (3 of 3 replicates; controls 5 of 9)
* EFDVLRYYYAN | GKKNRPS | SSRDSSGFQVF = 9.6 µM (2 of 3 replicates; controls 4 of 9)
* EVDSLRYYYAN | GKNNRPR | SSRHSSGFQVF = 1.1 µM (1 of 3 replicates; controls 4 of 9)
* EFDSLRYYYLN | GKNNRPS | SSRDWSGFQVF = 7.3 µM (2 of 3 replicates; controls 3 of 9)
* EYDSLRYYYAN | GKNNRPS | SHRGSSGFQVF = nd (0 of 3 replicates; controls 5 of 9)
* EEDSLRYYYAN | GNNNRPS | SSRDSDGFQVF = 89 µM (1 of 3 replicates; controls 2 of 9)
* EIDSLRYYYAN | GKNNRPL | SSADSSGFQVF = 28 µM (3 of 3 replicates; controls 4 of 9)
* EVDSLRYYYAN | GKNNRPS | SSRDSSTAQVF = 350 nM (3 of 3 replicates; controls 2 of 9)
* EMDSLRGYYAN | GKNNRPS | SSRDLSGFQVF = 280 nM (3 of 3 replicates; controls 6 of 9)
* EIDSRRYYYAN | GKNNRCS | SSRDSSGFQVF = nd (0 of 3 replicates; controls 4 of 9)
* ETDSLRYYYAT | GKPNRPS | SSRDSSGFQVF = 56 µM (3 of 3 replicates; controls 6 of 9)
* ERDSLRYYYAV | GKNNRPM | SSRDSSGFQVF = nd (0 of 3 replicates; controls 3 of 9)
* EFDSLRYYYAN | GKNNRWS | SSRDSSHFQVF = 390 µM (1 of 3 replicates; controls 3 of 9)
* EEDSLRYYYAN | GKNNRPS | SSRDEQGFQVF = nd (0 of 3 replicates; controls 2 of 9)
* EMDSLGYYYAN | GKNNRPS | SSRHSSGFQVF = 11 µM (1 of 3 replicates; controls 6 of 9)
* ESDSLRYYYAN | GKNNRPS | SSRDHSGFQVF = 68 nM (3 of 3 replicates; controls 2 of 9)
* EIDSLRYYYAN | GKNIRPS | SSRDSSGFQVF = 12 µM (3 of 3 replicates; controls 6 of 9)
* EHDSLRYYYAN | GKNNGPS | SSRPSSGFQVF = 12 µM (2 of 3 replicates; controls 2 of 9)
* ETDSLRYYYAN | GKNNRPS | SSRDSMTFQVF = nd (0 of 3 replicates; controls 4 of 9)
* ECDSLRYYYDN | GKNNRPS | SSRDSSGFQVP = 4.2 µM (3 of 3 replicates; controls 1 of 9)
* ELDSLRYYYAN | GKNNRPS | SSRPSSGFQVD = 15 µM (2 of 3 replicates; controls 3 of 9)
* EMDSLRYYYAN | GKNNRPS | SSRWSVGFQVF = 7.9 µM (2 of 3 replicates; controls 2 of 9)
* EMDSLHYYYAR | GKNNRPS | SSRDSSGFQVF = 15 µM (3 of 3 replicates; controls 4 of 9)
* EIDHLRYYFAN | GKNNRPS | SSRDSSGFQVF = 11 µM (3 of 3 replicates; controls 5 of 9)
* EFQSLRYDYAN | GKNNRPS | SSRDSSGFQVF = 320 nM (3 of 3 replicates; controls 0 of 9)
* EFDSLRYYKAN | GKNNRPS | SSRDSSGFQVF = 530 nM (3 of 3 replicates; controls 2 of 9)
* ERDSLRYYYAN | GKNNWPS | SSRDSSGFQVP = 160 µM (1 of 3 replicates; controls 2 of 9)
* EPDSLRYYYAN | GKNNRWS | SSRDSSGFQVF = 9.0 µM (3 of 3 replicates; controls 3 of 9)
* EIDYLRYYYAN | GKNNRPS | SSRDSSGFQVF = 4.5 µM (2 of 3 replicates; controls 2 of 9)
* ESDSLRYYYYN | GKNNRPS | SSRDSSWFQVF = 56 µM (3 of 3 replicates; controls 5 of 9)

Background: pairings of library AAYL52 with three empty control strains gave a value in 28% of cases (median 8.2 µM, 5th percentile 800 nM). Values in that range, when seen in few replicates, are hard to tell from nonspecific mating. The control count says in how many pairings with the empty strains this scFv gave a signal.